Literature values, collected in publication PMC11083565, “Computational Design of Novel Cyclic Peptides Endowed with Autophagy-Inhibiting Activity on Cancer Cell Lines” (International Journal of Molecular Sciences, 2024).

Biological target: LC3B (Homo sapiens) (UniProt Q9GZQ8)
Details: cited from earlier work

In the case of RavZ (from UniProt Q5ZUV9), the Kd is listed as 260 nM.
